# The list is not random: actives were taken first. Their share in the collection is about 1%.
# RXFP1 agonist: activates the human relaxin receptor RXFP1; Potency, µM (titrated, usually from 57.5 µM), for the others: at the highest dose activation, hits mostly activators; 0.3% of 370,000 active; AID 2676; HEK293T-RXFP1 cAMP TR-FRET, 30 min; response scale: percent of porcine relaxin response, buffer zero; also: potency is read from the fitted curve at half-maximal effect; % is scaled to controls: 0 for no effect and ±100 for the full control effect; nearly all actives have a fitted effect of over 60% in size
#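 Agonist response is measured as cAMP accumulation in an RXFP1-transfected HEK293T line under PDE4 inhibition. Values are scaled between buffer-only and 29 nM porcine relaxin, and EC50s come from standard Hill equation fits.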
# RXFP1 antagonist: RXFP1 (human) relaxin receptor antagonism; Q9HBX9; HEK293-RXFP1, relaxin-stimulated cAMP HTRF, 30 min; hits give low values; activity change, negative = inhibition, % at 57.5 µM; 0.59% of 350,000 active;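 active = activity change of -60% or lower, but not beyond a set lower limit; inconclusive = change between -60% and -40%, or beyond the set limit; inactive = change above -40%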; also: % is scaled to controls: 0 for no effect and ±100 for the full control effect
# KinaseGlo FLuc: blocks Kinase-Glo luciferase, a counter-screen artifact; Potency, µM (doses to about 38.3 µM), inactives show at the highest dose activity change, negative = inhibition, actives largely listed as inhibitors; 0.28% of 200,000 active; Q27757; AID 1379; Kinase-Glo luciferase, ATP luminescence, 8 min; also: potency is read from the fitted curve at half-maximal effect; % is scaled to controls: 0 for no effect and ±100 for the full control effect; nearly all actives have a fitted effect of over 60% in size
#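 Compounds were added to a substrate mix at pH 7.2 (50 mM imidazole, 10 uM ATP, within the enzyme's linear range), followed by Kinase-Glo detection reagent; luminescence was measured after 8 minutes at ambient temperature.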
# gsp agonist: agonists of gsp mutant (McCune-Albright syndrome); Potency, µM (doses to about 76.9 µM), without a hit: top-dose activation (cAMP increase), usual class: activators; gsp mutant cells, cAMP HTRF, 30 min; AID 624287; 0.13% of 340,000 active; active = well fitted activation curve with a large enough effect; inconclusive = small, poorly fitted or top-dose-only effect, or another doubt; inactive = no such curve, though single readings can be large or run the other way; cell line not stated here;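 also: phosphodiesterase inhibitor Ro 20-1724 added with compounds to block cAMP breakdown; potency is read from the fitted curve at half-maximal effect; nearly all actives have a fitted effect of over 60% in size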
#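 Cells in DMEM/10% FBS with G418 were pretreated with compounds in DMSO plus […] (300 uM stock) for 30 min at 37C. cAMP was measured by HTRF (cAMP-d2 plus anti-cAMP antibody-K) after 30 min at room temperature.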
# miR-21 reporter: raises the signal of a miR-21 reporter; AID 2288; 340,000 tested, under 10 active; Potency, µM (doses to about 38.3 µM), inactives show at the top dose reporter change, positive = more light; HeLa miR-21 FLuc reporter, luciferase, 48 h; active = well fitted rising curve with a large enough effect; inconclusive = small, poorly fitted or top-dose-only effect; inactive = no such curve, though single readings can be large or run the other way;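 note: % of control where 0% means no effect; miR-21 action dims this reporter so a rising signal means less miR-21 action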
#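 Luminescence from a firefly luciferase reporter carrying a miR-21 binding site downstream, stably expressed under a CMV promoter in HeLa cells that make miR-21 endogenously, reports miRNA modulation after 48 h compound exposure up to approximately 40uM final.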
# gsp antagonist: antagonists of gsp mutant (McCune-Albright syndrome); gsp-mutant cells, cAMP HTRF, 30 min; Potency, µM (highest dose often 76.9 µM), for inactives: top-dose activity change, negative = inhibition, usual class: inhibitors; 0.4% of 340,000 active; calls by dose curve; cell line not stated here;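 also: intracellular cAMP measured with PDE inhibitor Ro 20-1724 present during compound exposure; potency is read from the fitted curve at half-maximal effect; % is scaled to controls: 0 for no effect and ±100 for the full control effect; nearly all actives have a fitted effect of over 65% in size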
#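 G418-selected cells were plated in DMEM/10% FBS for 16-24 h at 37C, then treated with compounds plus the PDE inhibitor […] (300 uM solution added) for 30 min at 37C. Intracellular cAMP was measured by HTRF after 30 min lysis at room temperature.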
# * marks the source's active call; other numbers are inactive results; ? = inconclusive; · = no result given; [ ] = dose if it differs, or a comment. Unless noted, calls follow the shape of the dose curve; as a rule, active = well fitted curve in the direction sought with a large enough effect; inconclusive = small, poorly fitted or top-dose-only effect, or another doubt; inactive = no such curve, though single readings can be large; an effect the other way counts as inactive or inconclusive.
[1] COc1ccc2[nH]c3c(=O)n(CCCC(=O)NC4CCCCC4C)c(=S)[nH]c3c2c1 (stereo not drawn)
[2] COc1ccc2[nH]c3c(=O)n(CCCC(=O)NC4CCC(C)CC4)c(=S)[nH]c3c2c1 (stereo not drawn)
[3] O=C(CCCn1c(=S)[nH]c2ccsc2c1=O)NCCc1ccccc1
[4] CC1CCCCC1NC(=O)CCCCCn1c(=S)[nH]c2ccsc2c1=O (stereo not drawn)
[5] CCOc1ccc(N(CC)S(=O)(=O)N2CCCC(C(=O)NCc3ccccc3Cl)C2)cc1 (stereo not drawn)
[6] Cc1cc(NC(=O)CSc2nc3ccsc3c(=O)n2CCCC(=O)NCCc2ccccc2)no1
[7] CCN(CC)C(=O)CSc1nc2ccsc2c(=O)n1CCCC(=O)NCCc1ccc(S(N)(=O)=O)cc1
[8] Cc1ccc(C(CC(=O)NCC2(c3ccccc3)CCCC2)c2ccccc2)c(O)c1 (stereo not drawn)
assay / entry	1	2	3	4	5	6	7	8
RXFP1 agonist	-2.0%	3.2%	6.6%	3.5%	0.9%	2.6%	12.3%	2.4%
RXFP1 antagonist	-65.6*	-35.4	-94.3*	-73.4*	-1.0	-79.0*	6.8	-64.9*
KinaseGlo FLuc	·	·	·	·	·	-2.4%	2.4%	·
gsp agonist	-29.6%[15.4 µM]	1.1%	?	1.5%	·	-9.0%[15.4 µM]	?	·
miR-21 reporter	-1.2%	-0.1%	-12.6%	-4.9%	20.6%	-1.8%	-4.6%	?
gsp antagonist	10.5%	-6.4%	-2.9%	3.3%	·	9.6%	-1.9%	·

# Random excerpt: 3 compounds from above.
[1] COc1ccc2[nH]c3c(=O)n(CCCC(=O)NC4CCCCC4C)c(=S)[nH]c3c2c1 (stereo not drawn)
[8] Cc1ccc(C(CC(=O)NCC2(c3ccccc3)CCCC2)c2ccccc2)c(O)c1 (stereo not drawn)
[3] O=C(CCCn1c(=S)[nH]c2ccsc2c1=O)NCCc1ccccc1
assay / entry	1	8	3
RXFP1 agonist	-2.0%	2.4%	6.6%
RXFP1 antagonist	-65.6*	-64.9*	-94.3*
KinaseGlo FLuc	·	·	·
gsp agonist	-29.6%[15.4 µM]	·	?
miR-21 reporter	-1.2%	?	-12.6%
gsp antagonist	10.5%	·	-2.9%

# (listing goes on)
[9] COc1cccc(NC(=O)C2CCCN(S(=O)(=O)c3ccc4[nH]c(=O)ccc4c3)C2)c1 (stereo not drawn)
[10] Cc1cc(NS(=O)(=O)c2ccc(NC(=S)NC(=O)/C=C/c3ccccc3)cc2)no1
[11] Cc1ccc(/C=C/C(=O)NC(=S)Nc2ccc(S(=O)(=O)Nc3cc(C)on3)cc2)cc1
[12] Cc1ccc(C(=O)Nc2cccc(Oc3ccccc3)c2)o1
[13] Cc1ccc(C(=O)Nc2ccccc2Oc2ccccc2)o1
[14] C=Cc1ccc2c(c1)N(C)C(=C)S2
[15] Cc1ccc(-n2nnnc2C(Cl)c2nnnn2-c2ccc(C)cc2)cc1
[16] COc1ccc(COc2ccccc2C(=O)NCc2ccccc2)cc1F
assay / entry	9	10	11	12	13	14	15	16
RXFP1 agonist	2.0%	1.6%	-0.1%	-1.7%	·	0.6%	-0.2%	1.0%
RXFP1 antagonist	-6.1	-7.3	-8.5	-71.8*	-11.2	-119.3*	-63.2*	0.6
KinaseGlo FLuc	·	·	·	3.6%	·	1.5%	3.4%	1.8%
gsp agonist	·	7.3%	0.1%	25.5%	?	-11.4%	-34.8%	-28.5%
miR-21 reporter	0.9%	-8.6%	-5.6%	-43.0%	·	-0.6%	?	22.1%
gsp antagonist	·	?	35.5µM*	-9.5%	0.8%	10.6%	9.9%	28.2µM*

[17] CCOC(=O)c1ccccc1NC(=O)Cn1cnc2c1c(=O)n(C)c(=O)n2C
[18] CCOC(=O)c1ccccc1NC(=O)CSc1nc2c(c(=O)n(C)c(=O)n2C)n1C
[19] CC/C(=N/O)C(=O)c1ccc(Br)cc1
[20] C/C(=N/OC(=O)c1ccc(C)cc1)C(=O)c1ccc(Br)cc1
[21] Cc1ccc(C(C)C)c(OCC(=O)N2CCC(c3nc4ccccc4o3)CC2)c1
[22] COc1ccccc1OCC(=O)N1CCC(c2nc3ccccc3o2)CC1
[23] COc1cccc(OC)c1C(=O)Nc1cccc(-c2nc3cc(C)cc(C)c3o2)c1
[24] Nc1nonc1C(=O)NCCN=Cc1cc(Cc2ccccc2)cc(Br)c1O
assay / entry	17	18	19	20	21	22	23	24
RXFP1 agonist	4.1%	0.3%	-0.6%	-2.3%	2.1%	0.0%	0.6%	2.0%
RXFP1 antagonist	1.3	·	-87.7*	4.0	-98.3*	-20.0	·	-73.0*
KinaseGlo FLuc	-4.0%	0.1%	0.9%	·	·	·	·	-7.1%
gsp agonist	28.2µM*	·	-1.9%[15.4 µM]	-7.6%	·	·	·	0.0%
miR-21 reporter	1.1%	-4.0%	-12.4%	1.8%	?	-7.4%	3.5%	0.9%
gsp antagonist	12.7%	·	8.2%	-4.6%	·	·	·	-15.9%

[25] COc1cc(/C=C2\SC(=O)NC2=O)ccc1Oc1ccc([N+](=O)[O-])cn1
[26] COc1cc(/C=C2/SC(=O)NC2=O)ccc1Oc1ccc([N+](=O)[O-])cc1[N+](=O)[O-]
[27] CCCN(CCC)C(=O)CSc1nc2c(sc(=S)n2-c2ccc(OCC)cc2)c(=O)[nH]1
[28] Cc1nc2ccc(S(=O)(=O)Nc3cccc(-c4nc5cccnc5s4)c3C)cc2s1
[29] NC(=S)NN=Cc1nccc2ccccc12
[30] Cn1cc(S(=O)(=O)c2ccccc2)c(=O)c2cc(F)c(N3CCCCCC3)cc21
[31] COc1cccc(NC(=O)C2CCN(S(=O)(=O)c3ccc4c(c3)CC(C)N4C(C)=O)CC2)c1 (stereo not drawn)
[32] CC(=O)N1c2ccc(S(=O)(=O)N3CCC(C(=O)Nc4ccc(F)cc4)CC3)cc2CC1C (stereo not drawn)
assay / entry	25	26	27	28	29	30	31	32
RXFP1 agonist	0.3%	0.0%	1.4%	2.1%	·	8.7%	1.7%	-2.5%
RXFP1 antagonist	-15.3	15.1	-24.0	-27.2	-76.0*	-35.7	-28.0	-12.1
KinaseGlo FLuc	·	·	10.3%	-0.8%	·	·	·	·
gsp agonist	7.4%[15.4 µM]	?	8.9%[15.4 µM]	12.2%	6.4%	·	?	7.8%
miR-21 reporter	-10.2%	-9.1%	-0.5%	5.6%	·	-8.8%	22.0%	15.4%
gsp antagonist	-29.4%	25.1µM*	14.1µM*	35.5µM*	-4.4%	·	?	10µM*

[33] COc1ccc(OC)c(-c2cc(C3CCN(c4cc(Cl)nc(N)n4)CC3)[nH]n2)c1
[34] CCCCn1cc(S(=O)(=O)c2ccc(OC)cc2)c(=O)c2cc(F)c(N3CCOCC3)cc21
[35] COc1ccc(-n2c(-c3ccc(C)cc3)cc3c2CC(C)(C)CC3=O)c(OC)c1
[36] CC(C)c1ccccc1NC(=S)NC(=O)C1CCCCC1
[37] CCOc1ccc2nc(N3CCCC(C(=O)Nc4cc(Cl)c(OC)cc4OC)C3)sc2c1 (stereo not drawn)
[38] CSc1ccc(CNCc2c(C(=O)O)c(C)n(Cc3ccc(F)cc3Cl)c2C)cc1
[39] CCC(=O)OCC(=O)c1c(N)n(Cc2ccccc2)c(=O)n(C)c1=O
[40] Cn1c(=O)c(C(=O)COc2ccc(C#N)cc2)c(N)n(Cc2ccccc2)c1=O
assay / entry	33	34	35	36	37	38	39	40
RXFP1 agonist	0.0%	4.8%	3.6%	·	-0.2%	0.9%	-3.8%	17.8µM*
RXFP1 antagonist	-26.2	-38.3	-62.1*	-65.4*	-10.4	-4.6	-4.7	31.3
KinaseGlo FLuc	-0.6%	·	·	·	·	·	-0.8%	-0.5%
gsp agonist	-65.2%	·	·	?	·	·	0.0%	?
miR-21 reporter	?	-12.8%	19.7%	·	-9.8%	-1.1%	0.6%	-0.8%
gsp antagonist	35.5µM*	·	·	-3.6%	·	·	-1.6%	-0.6%

[41] CC(=O)c1cccc(NC(=O)CSc2nnc3ccc(-c4ccc(Br)cc4)nn23)c1
[42] C=CC(=O)N1C/C(=C/c2ccc(F)cc2)C(=O)/C(=C\c2ccc(F)cc2)C1
[43] CCOC(=O)c1c(C)cc(OC)cc1O
[44] COc1cc(C)c(C(=O)CC(=O)c2c(C)cc(OC)cc2C)c(C)c1
[45] COc1ccc(S(=O)(=O)NCCS(=O)(=O)N2CCN(c3ccccc3F)CC2)cc1
assay / entry	41	42	43	44	45
RXFP1 agonist	3.1%	·	·	·	1.2%
RXFP1 antagonist	-5.4	-79.8*	·	-65.7*	-2.4
KinaseGlo FLuc	·	·	-0.9%	·	·
gsp agonist	·	10.3%	·	10.9%	·
miR-21 reporter	-4.1%	·	·	·	-7.2%
gsp antagonist	·	4.9%	·	-5.2%	·

# Screening data (PubChem BioAssay)
